Target: T1, PEAK2^IDR1 (residues 802-1406), from insect cells, phosphorylated by Src (human, UniProt Q86YV5 802-1406, phosphorylated with Src kinase, sites not stated; phosphorylation of the tandem site 14-3-3 motif (RAASSP) found by proteomic analysis; biotin (EZ-Link NHS-PEG4-Biotin, 1:1 molar ratio))
T1 construct: human PEAK2 (SgK223, PRAG1), UniProt Q86YV5, residues 802-1406; also called PEAK2-IDR1 (+ Src phosphorylation); source: Sf21 insect cells, purified; phosphorylated in vitro with recombinant Src kinase domain
T1 sequence (looked up): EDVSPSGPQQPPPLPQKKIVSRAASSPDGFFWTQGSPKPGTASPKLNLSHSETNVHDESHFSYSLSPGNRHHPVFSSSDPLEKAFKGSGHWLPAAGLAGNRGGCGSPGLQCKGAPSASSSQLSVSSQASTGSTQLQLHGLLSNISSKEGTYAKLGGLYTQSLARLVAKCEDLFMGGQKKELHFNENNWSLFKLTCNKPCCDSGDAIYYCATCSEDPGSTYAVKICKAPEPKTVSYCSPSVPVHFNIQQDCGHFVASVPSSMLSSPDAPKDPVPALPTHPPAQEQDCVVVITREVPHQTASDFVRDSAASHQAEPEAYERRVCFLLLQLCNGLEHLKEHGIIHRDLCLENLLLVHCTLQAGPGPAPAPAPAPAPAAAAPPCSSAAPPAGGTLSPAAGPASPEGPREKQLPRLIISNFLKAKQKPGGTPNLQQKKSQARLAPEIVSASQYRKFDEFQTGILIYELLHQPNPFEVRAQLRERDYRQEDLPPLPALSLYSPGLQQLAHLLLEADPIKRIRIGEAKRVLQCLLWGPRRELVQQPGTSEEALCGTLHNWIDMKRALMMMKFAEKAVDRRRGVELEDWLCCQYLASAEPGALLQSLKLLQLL
Test: SPR; biotinylated PEAK proteins (with or without Src phosphorylation) captured with a biotin CAPture kit; Grb2 FL, Grb2 SH2, CrkII SH2, CrkII FL monomer or dimer as analytes; Biacore 8K+, 20 °C, HBS-TP with NaCl raised to 500 mM; 1 M NaCl regeneration; steady state
Settings: both partners purified

B1: Grb2 SH2 domain (Grb2^SH2) (domain or fragment, human, UniProt P62993-1 60-152, looked up)
chain: WFFGKIPRAKAEEMLSKQRHDGAFLIRESESAPGDFSLSVKFGNDVQHFKVLRDGAGKYFLWVVKFNSLNELVDYHRSTSVSRNQQIFLRDIE
modifications: biotin (EZ-Link NHS-PEG4-Biotin, 1:1 molar ratio) where it was immobilised (a1)
notes: SH2 domain of human Grb2; This construct is not in the list of the methods; the other adapter constructs were made in E. coli C41 (DE3) with an N-terminal His8 tag
- Kd: > 50 µM
